Source: PMC10585379, “Hydrophobic moment drives penetration of bacterial membranes by transmembrane peptides” (The Journal of Biological Chemistry, 2023)

Test: Tryptophan quenching assay with dibrominated lipid LUVs
Type: physicochemical
Settings: 5 μM peptide or BSA, peptide-to-lipid ratio of 62.5, 0-30% brominated lipid, Stern-Volmer plot; mean of three independent analyses
Procedure: Large unilamellar vesicles (LUVs) were prepared using methods previously described ([14]). Briefly, 1-palmitoyl-2-oleoyl-sn-glycero-3-phosphoethanolamine (POPE) and 1-palmitoyl-2-oleoyl-sn-glycero-3-phospho-(1′-rac-glycerol) (POPG) (Avanti Polar Lipids) were combined in a 3:1 ratio, respectively, in chloroform and dried to a film before water washing and lyophilizing into a powder. This powder was resuspended in Tris-Cl buffer (10 mM Tris, 10 mM NaCl, pH 7), freeze-thawed 5× (dry ice – 50 °C water bath) and extruded through a mini-extruder fitted with a 0.2 μm Whatman Nuclepore polycarbonate membrane filter (Cytiva) at least 15× to form LUVs. Where applicable, 1-palmitoyl-2-(6,7-dibromo)stearoyl-sn-glycero-3-phosphocholine (PC-Br ([6], [7])) or 1-palmitoyl-2-(11,12-dibromo)stearoyl-sn-glycero-3-phosphocholine (PC-Br ([11], [12])) (Avanti Polar Lipids) were substituted for POPE at the given percentages and incorporated into LUVs as described.
Brominated lipid-containing LUVs (0%, 10%, 20%, and 30%) were combined with 5 μM peptide and tryptophan emission fluorescence was recorded from 300 to 400 nm using a 280 nm excitation wavelength. Fluorescence spectra were plotted and the area under the curve was used to generate a Stern-Volmer plot of initial fluorescence/quenched fluorescence (Fo/F) against percentage brominated lipid. […]

For “Bovine serum albumin [BSA, reference compound]”, the “Tryptophan fluorescence quenching by PC-Br(6,7)-containing LUVs” value was “little to no quenching” and the “Tryptophan fluorescence quenching by PC-Br(11,12)-containing LUVs (depth of insertion)” value was “little to no quenching”.
